# Cyclic peptide permeability, from CycPeptMPDB

Collected by the curators of CycPeptMPDB (Li et al. 2023) from Townsend et al. 2020, doi:10.26434/chemrxiv.13335941.v1.

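Lipid, pH, incubation time, direction and concentration are not recorded in the data file. Other peptides of the study may be missing here. Peptides that the database sets to -10, its floor, are left out.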

PAMPA is the parallel artificial membrane permeability assay, which has no cells and reads passive diffusion. Permeability is in 10^-6 cm/s, converted from the database's log10 values; higher is more permeable.

| structure (SMILES) | PAMPA (10^-6 cm/s) |
|---|---|
| CC(C)C[C@@H]1NC(=O)[C@H](C)N(C)C(=O)[C@H](Cc2ccccc2)NC(=O)[C@@H](CC(C)C)NC(=O)[C@H]2CCCN2C(=O)[C@H](CC(C)C)NC1=O | 0.87 |
| CC(C)C[C@@H]1NC(=O)[C@@H]2CCCN2C(=O)CN(Cc2ccccc2)C(=O)[C@@H](CC(C)C)N(C)C(=O)[C@H](C)NC(=O)[C@@H]2CCCN2C(=O)[C@H](Cc2ccccc2)NC1=O | 0.89 |
| CCCN1CC(=O)N[C@H](CC(C)C)C(=O)N(C)[C@H](CC(C)C)C(=O)N2CCC[C@@H]2C(=O)N(C)[C@@H](CC(C)C)C(=O)N[C@@H](Cc2ccccc2)C(=O)N2CCC[C@@H]2C1=O | 7.8 |
| CCCN1CC(=O)N[C@H](CC(C)C)C(=O)N(C)[C@H](CC(C)C)C(=O)N2CCC[C@@H]2C(=O)N(C)[C@H](CC(C)C)C(=O)N[C@@H](Cc2ccccc2)C(=O)N2CCC[C@@H]2C1=O | 5.5 |
| CC(C)C[C@H]1C(=O)N(Cc2ccccc2)CC(=O)N2CCC[C@H]2C(=O)N(C)[C@@H](CC(C)C)C(=O)N[C@@H](Cc2ccccc2)C(=O)N2CCC[C@H]2C(=O)N(C)[C@@H](C)C(=O)N1C | 3.3 |
| CC(C)C[C@@H]1C(=O)N[C@@H](Cc2ccccc2)C(=O)N[C@H](C)C(=O)N(C)[C@@H](CC(C)C)C(=O)N(C)[C@@H](CC(C)C)C(=O)N2CCC[C@H]2C(=O)N1C | 6.5 |
| CC(C)C[C@@H]1NC(=O)[C@H](C)N(C)C(=O)[C@@H]2CCCN2C(=O)[C@H](Cc2ccccc2)NC(=O)CN(Cc2ccccc2)C(=O)[C@H]2CCCN2C(=O)[C@@H](CC(C)C)NC1=O | 1.5 |
| CCCN1CC(=O)N[C@@H](CC(C)C)C(=O)N[C@@H](Cc2ccccc2)CC(=O)N2CCC[C@@H]2C(=O)N(C)[C@H](CC(C)C)C(=O)N[C@@H](Cc2ccccc2)C(=O)N2CCC[C@@H]2C1=O | 1.3 |
| CC(C)C[C@@H]1NC(=O)[C@@H](C)N(C)C(=O)[C@H](Cc2ccccc2)NC(=O)[C@H](CC(C)C)NC(=O)[C@@H]2CCCN2C(=O)C[C@H](Cc2ccccc2)NC1=O | 1.1 |
| CC(C)C[C@@H]1NC(=O)[C@@H](C)N(C)C(=O)[C@H]2CCCN2C(=O)[C@H](Cc2ccccc2)NC(=O)[C@@H](CC(C)C)N(C)C(=O)[C@H]2CCCN2C(=O)[C@H](CC(C)C)N(C)C1=O | 6.9 |
| CC(C)C[C@@H]1C(=O)N2CCC[C@@H]2C(=O)N(C)[C@@H](CC(C)C)C(=O)N[C@@H](Cc2ccccc2)C(=O)N2CCC[C@@H]2C(=O)N(C)[C@H](C)C(=O)N(C)[C@@H](CC(C)C)C(=O)N1C | 2.6 |
| CC(C)C[C@H]1NC(=O)[C@H](C)NC(=O)[C@H](Cc2ccccc2)NC(=O)[C@H](CC(C)C)N(C)C(=O)[C@H]2CCCN2C(=O)[C@@H](CC(C)C)NC1=O | 0.52 |
| CC(C)C[C@@H]1C(=O)N[C@@H](Cc2ccccc2)CC(=O)N2CCC[C@@H]2C(=O)N[C@H](CC(C)C)C(=O)N[C@@H](Cc2ccccc2)C(=O)N[C@H](C)C(=O)N1C | 1.5 |
| CC(C)C[C@@H]1C(=O)N[C@@H](Cc2ccccc2)CC(=O)N2CCC[C@H]2C(=O)N(C)[C@@H](CC(C)C)C(=O)N[C@@H](Cc2ccccc2)C(=O)N2CCC[C@H]2C(=O)N[C@@H](C)C(=O)N1C | 2.2 |
| CC(C)C[C@H]1NC(=O)[C@H](C)N(C)C(=O)[C@H]2CCCN2C(=O)[C@H](Cc2ccccc2)NC(=O)[C@H](CC(C)C)N(C)C(=O)[C@@H]2CCCN2C(=O)C[C@H](Cc2ccccc2)NC1=O | 2.3 |
| CCCN1CC(=O)N[C@H](CC(C)C)C(=O)N(Cc2ccccc2)CC(=O)N2CCC[C@@H]2C(=O)N[C@@H](CC(C)C)C(=O)N[C@@H](Cc2ccccc2)C1=O | 1.7 |
| CCCN1CC(=O)N[C@@H](CC(C)C)C(=O)N(Cc2ccccc2)CC(=O)N2CCC[C@H]2C(=O)N(Cc2ccccc2)CC(=O)N[C@@H](Cc2ccccc2)C(=O)N2CCC[C@@H]2C1=O | 2.4 |
| CC(C)C[C@@H]1NC(=O)[C@@H]2CCCN2C(=O)[C@@H](CC(C)C)N(C)C(=O)[C@@H](CC(C)C)N(C)C(=O)[C@H](C)N(C)C(=O)[C@H](Cc2ccccc2)NC1=O | 24 |
| CC(C)C[C@@H]1NC(=O)[C@@H](C)NC(=O)[C@@H]2CCCN2C(=O)[C@H](Cc2ccccc2)NC(=O)[C@H](CC(C)C)NC(=O)[C@@H]2CCCN2C(=O)C[C@H](Cc2ccccc2)NC1=O | 0.2 |
| CCCN1CC(=O)N[C@@H](CC(C)C)C(=O)N(C)[C@@H](CC(C)C)C(=O)N2CCC[C@@H]2C(=O)N(Cc2ccccc2)CC(=O)N[C@@H](Cc2ccccc2)C(=O)N2CCC[C@H]2C1=O | 3.2 |
| CC(C)C[C@@H]1NC(=O)[C@@H](C)N(C)C(=O)[C@H](Cc2ccccc2)NC(=O)CN(Cc2ccccc2)C(=O)[C@H]2CCCN2C(=O)[C@@H](CC(C)C)NC1=O | 2 |
| CC(C)C[C@@H]1NC(=O)[C@@H](C)NC(=O)[C@H](Cc2ccccc2)NC(=O)[C@H](CC(C)C)N(C)C(=O)[C@H]2CCCN2C(=O)[C@H](CC(C)C)N(C)C1=O | 15 |